Results on four molecules are retold here after PMC6796883, “Molecular basis for hierarchical histone de-β-hydroxybutyrylation by SIRT3” (Cell Discovery, 2019).

One test deals with DPF domain of DPF2. To be noted: H3K14bhb racemic mixture; read-out: binding of DPF2 DPF domain; cited from earlier work. The method, then:
(§1) We further checked the deacylation activity in cells with overexpressed SIRT3. Consistently, overexpression of wild type but not the H248Y mutant SIRT3 reduced bhb levels at sites H3K4, H3K9, H3K18 and H4K16, but not H4K5, H4K8, H4K12 (Fig. 6h). […] Of note, a “reading-and-writing” cross- ...

The next test has as its target DPF domain of MOZ. To be noted: H3K14bhb racemic mixture; read-out: binding of MOZ DPF domain; cited from earlier work. The method, then:
as §1

The target of the next test is T1, SIRT3 (Homo sapiens, UniProt Q9NTG7).
T1 construct: 10xHIS-SUMO (N, cleaved yes); made in house; host or cells: Escherichia coli BL21 (DE3)
T1 sequence (Q9NTG7 118-399): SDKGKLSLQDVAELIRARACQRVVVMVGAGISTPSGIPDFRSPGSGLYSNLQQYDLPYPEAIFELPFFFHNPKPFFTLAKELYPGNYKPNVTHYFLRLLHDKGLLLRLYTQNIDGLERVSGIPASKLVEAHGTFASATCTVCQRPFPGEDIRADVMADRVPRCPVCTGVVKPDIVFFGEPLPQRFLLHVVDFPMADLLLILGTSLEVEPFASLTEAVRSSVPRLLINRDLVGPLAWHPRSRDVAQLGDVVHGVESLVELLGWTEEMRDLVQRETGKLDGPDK
Nature of the test: ITC binding of histone acylation peptides to SIRT3. The settings on record: for Ka / deltaH / deltaS / N value: ITC, SIRT3, 25 °C; for N value: stoichiometry of fit.

Turning to `CC(C)C[C@H](NC(=O)[C@H](CCC(N)=O)NC(=O)[C@H](CCCCN)NC(=O)[C@H](CCCNC(=N)N)NC(=O)[C@@H]1CCCN1C(=O)[C@H](C)NC(=O)[C@H](CCCCNC(=O)CC(C)O)NC(=O)CNC(=O)CNC(=O)[C@@H](NC(=O)[C@H](CO)NC(=O)[C@H](CCCCN)NC(=O)[C@H](CCCNC(=N)N)NC(=O)[C@H](C)N)[C@@H](C)O)C(=O)N[C@@H](C)C(=O)O` (stereo partly shown) [H3(7-22)K14bhb], at DPF domain of DPF2, the Kd was 0.93 µM. Also, the Kd on DPF domain of MOZ was 110 µM. Besides, on SIRT3, the Ka is reported as 2.17E3 ± 39.2 M-1, the deltaH is recorded as -1.294E4 ± 176.4 cal/mol, the deltaS was -28.1 cal/mol/deg and the N value came out at 1.00. On SIRT3 (listed as H3K14bhb), this molecule displayed a deltaS of −28.1 cal/mol/deg.
The molecule `CC(O)CC(=O)NCCCC[C@H](NC(=O)[C@@H](NC(=O)[C@H](CCCNC(=N)N)NC(=O)[C@H](C)N)[C@@H](C)O)C(=O)NCC(=O)N[C@H](C(=O)N[C@@H](C)C(=O)N[C@@H](CCCNC(=N)N)C(=O)N[C@@H](CCCCN)C(=O)N[C@@H](CO)C(=O)N[C@H](C(=O)NCC(=O)NCC(=O)N[C@@H](CCCCN)C(=O)N[C@@H](C)C(=O)O)[C@@H](C)O)[C@@H](C)O` (stereo partly shown) [H3Q5G(1-15)K4bhb] yielded a Kd on SIRT3 of 79.4 µM.
Still for that read-out and setting: then `CC(O)CC(=O)NCCCC[C@H](NC(=O)CNC(=O)[C@H](CCCNC(=N)N)NC(=O)[C@H](C)N)C(=O)N[C@@H](CCC(N)=O)C(=O)N[C@H](C(=O)N[C@@H](C)C(=O)N[C@@H](CCCNC(=N)N)C(=O)N[C@@H](CCCCN)C(=O)N[C@@H](CO)C(=O)N[C@H](C(=O)NCC(=O)NCC(=O)N[C@@H](CCCCN)C(=O)N[C@@H](C)C(=O)O)[C@@H](C)O)[C@@H](C)O` (stereo partly shown) [H3T3G(1-15)K4bhb], with 205 µM.
Regarding `CC(C)C[C@H](NC(=O)[C@H](C)NC(=O)[C@H](CCCCNC(=O)CC(C)O)NC(=O)[C@H](C)NC(=O)CNC(=O)[C@H](CCCCN)NC(=O)CNC(=O)[C@H](CCCNC(=N)N)NC(=O)CNC(=O)[C@@H](N)CO)C(=O)NCC(=O)N[C@@H](CCCCN)C(=O)NCC(=O)NCC(=O)N[C@@H](C)C(=O)O` (stereo partly shown) [H4G7A/G9A(1-15)K8bhb], on SIRT3, the Ka was 5.63E3 ± 286 M-1, the deltaH was -8.402 ± 0.2577 kcal/mol, the deltaS is given as -11.0 cal/mol/deg and the N value turned out to be 1.00.
